Test results as given in BindingDB's records for patent US20240277683 (Ctxt, 2024).

The chains behind the UniProt entries cited, without tags or fusion partners. Residues count along the entry.
UniProt Q8WYB5, whole entry: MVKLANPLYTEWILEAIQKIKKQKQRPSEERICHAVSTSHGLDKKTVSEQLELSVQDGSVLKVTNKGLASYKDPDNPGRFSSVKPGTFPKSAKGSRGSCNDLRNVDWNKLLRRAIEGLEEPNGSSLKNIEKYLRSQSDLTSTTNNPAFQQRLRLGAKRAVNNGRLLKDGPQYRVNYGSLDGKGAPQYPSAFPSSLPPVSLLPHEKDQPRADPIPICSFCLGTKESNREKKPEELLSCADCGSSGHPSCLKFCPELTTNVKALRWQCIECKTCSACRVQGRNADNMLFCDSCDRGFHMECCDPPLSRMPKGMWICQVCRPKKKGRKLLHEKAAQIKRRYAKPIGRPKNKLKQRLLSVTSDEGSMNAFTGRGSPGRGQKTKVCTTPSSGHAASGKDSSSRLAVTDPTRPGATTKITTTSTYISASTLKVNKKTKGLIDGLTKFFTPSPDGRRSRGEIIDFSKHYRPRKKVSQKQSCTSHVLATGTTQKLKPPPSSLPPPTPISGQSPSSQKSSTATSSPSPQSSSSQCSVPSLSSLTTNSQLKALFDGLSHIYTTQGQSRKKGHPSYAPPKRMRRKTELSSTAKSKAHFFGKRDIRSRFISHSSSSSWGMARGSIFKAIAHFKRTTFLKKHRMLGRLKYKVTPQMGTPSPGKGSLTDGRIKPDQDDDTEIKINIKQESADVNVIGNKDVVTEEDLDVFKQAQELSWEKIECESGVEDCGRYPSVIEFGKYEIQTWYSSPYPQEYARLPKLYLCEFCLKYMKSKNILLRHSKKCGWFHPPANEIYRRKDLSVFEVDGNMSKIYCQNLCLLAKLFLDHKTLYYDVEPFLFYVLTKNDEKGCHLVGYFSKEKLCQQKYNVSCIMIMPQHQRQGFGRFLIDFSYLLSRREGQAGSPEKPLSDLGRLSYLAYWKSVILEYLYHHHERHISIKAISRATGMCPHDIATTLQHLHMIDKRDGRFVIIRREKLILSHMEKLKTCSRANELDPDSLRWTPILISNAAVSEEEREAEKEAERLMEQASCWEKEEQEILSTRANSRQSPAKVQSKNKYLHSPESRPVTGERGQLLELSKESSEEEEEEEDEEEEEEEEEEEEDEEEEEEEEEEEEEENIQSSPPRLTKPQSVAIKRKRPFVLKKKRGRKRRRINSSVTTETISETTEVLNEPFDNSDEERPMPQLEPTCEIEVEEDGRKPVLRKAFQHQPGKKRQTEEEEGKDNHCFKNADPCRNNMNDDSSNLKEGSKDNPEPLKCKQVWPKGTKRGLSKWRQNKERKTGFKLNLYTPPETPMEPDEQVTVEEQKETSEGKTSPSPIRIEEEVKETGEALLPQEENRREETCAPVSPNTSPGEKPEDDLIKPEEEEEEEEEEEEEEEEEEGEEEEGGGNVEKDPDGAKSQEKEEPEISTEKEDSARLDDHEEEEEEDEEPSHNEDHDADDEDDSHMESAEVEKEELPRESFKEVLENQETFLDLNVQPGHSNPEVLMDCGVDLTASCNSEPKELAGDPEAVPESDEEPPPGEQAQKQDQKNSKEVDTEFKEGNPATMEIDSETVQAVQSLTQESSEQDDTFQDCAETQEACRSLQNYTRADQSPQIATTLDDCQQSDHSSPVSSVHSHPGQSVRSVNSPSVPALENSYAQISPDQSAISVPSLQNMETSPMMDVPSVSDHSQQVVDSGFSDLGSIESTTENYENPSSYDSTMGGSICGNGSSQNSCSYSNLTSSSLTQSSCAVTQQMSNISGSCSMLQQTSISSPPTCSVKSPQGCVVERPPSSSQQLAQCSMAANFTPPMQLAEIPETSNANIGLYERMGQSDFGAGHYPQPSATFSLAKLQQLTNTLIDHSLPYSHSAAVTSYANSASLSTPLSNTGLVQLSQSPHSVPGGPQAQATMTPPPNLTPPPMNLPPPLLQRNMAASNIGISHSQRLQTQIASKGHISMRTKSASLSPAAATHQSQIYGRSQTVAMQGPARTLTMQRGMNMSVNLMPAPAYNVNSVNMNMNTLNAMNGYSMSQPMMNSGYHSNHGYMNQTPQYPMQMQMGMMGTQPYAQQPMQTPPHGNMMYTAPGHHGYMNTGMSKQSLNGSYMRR
UniProt Q92794, 507-778: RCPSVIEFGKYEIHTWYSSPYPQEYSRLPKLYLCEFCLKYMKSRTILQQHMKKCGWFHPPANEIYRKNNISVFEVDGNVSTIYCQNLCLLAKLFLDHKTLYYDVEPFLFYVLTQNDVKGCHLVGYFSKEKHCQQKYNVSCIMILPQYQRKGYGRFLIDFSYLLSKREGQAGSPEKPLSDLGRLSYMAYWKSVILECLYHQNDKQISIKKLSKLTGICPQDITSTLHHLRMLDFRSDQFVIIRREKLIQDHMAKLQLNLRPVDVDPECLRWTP
UniProt Q92993, whole entry: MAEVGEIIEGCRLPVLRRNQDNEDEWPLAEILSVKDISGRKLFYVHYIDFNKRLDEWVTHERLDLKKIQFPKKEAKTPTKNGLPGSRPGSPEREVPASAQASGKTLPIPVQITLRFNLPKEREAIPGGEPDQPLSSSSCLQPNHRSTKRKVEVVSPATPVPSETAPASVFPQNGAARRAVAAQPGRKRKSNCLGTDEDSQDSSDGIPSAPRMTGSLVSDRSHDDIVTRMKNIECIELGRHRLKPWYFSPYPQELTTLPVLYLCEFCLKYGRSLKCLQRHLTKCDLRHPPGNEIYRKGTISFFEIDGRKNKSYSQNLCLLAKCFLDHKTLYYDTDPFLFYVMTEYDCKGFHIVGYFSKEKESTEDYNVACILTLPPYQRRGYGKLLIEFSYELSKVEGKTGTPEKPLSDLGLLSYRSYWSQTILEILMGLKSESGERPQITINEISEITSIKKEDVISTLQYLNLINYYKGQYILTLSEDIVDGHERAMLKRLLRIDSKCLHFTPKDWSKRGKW
UniProt O95251, whole entry: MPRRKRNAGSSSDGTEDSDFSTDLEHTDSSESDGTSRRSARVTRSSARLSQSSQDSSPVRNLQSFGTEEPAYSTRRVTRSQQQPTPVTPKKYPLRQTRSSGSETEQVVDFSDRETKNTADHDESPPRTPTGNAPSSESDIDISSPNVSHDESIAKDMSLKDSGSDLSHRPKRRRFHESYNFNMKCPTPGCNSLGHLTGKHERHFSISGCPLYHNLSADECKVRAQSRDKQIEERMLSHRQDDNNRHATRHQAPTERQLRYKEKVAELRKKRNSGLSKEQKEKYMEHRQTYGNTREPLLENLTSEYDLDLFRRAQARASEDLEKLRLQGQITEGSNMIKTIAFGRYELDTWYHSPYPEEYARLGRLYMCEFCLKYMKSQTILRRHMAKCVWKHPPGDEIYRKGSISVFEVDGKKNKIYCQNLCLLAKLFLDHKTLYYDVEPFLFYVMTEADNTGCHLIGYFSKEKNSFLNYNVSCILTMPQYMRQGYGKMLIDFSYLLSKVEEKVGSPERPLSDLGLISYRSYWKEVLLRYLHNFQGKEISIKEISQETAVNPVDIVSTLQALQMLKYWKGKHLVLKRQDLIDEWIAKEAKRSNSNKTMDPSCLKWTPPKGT

Experiments:
Experiment in all cases: Acetyltransferase Biochemical Assay
[1] = target: Histone acetyltransferase KAT6B (Human, UniProt Q8WYB5)
Description: (§1) The reactions were performed in assay buffer (100 mM Tris-HCl, pH7.8, 15 mM NaCl, 1 mM EDTA, 0.01% Tween-20, 1 mM Dithiothreitol and 0.01% m/v chicken egg white albumin). […] 11-point dilution series of the test compounds were prepared in DMSO; a volume of 100 nL was transferred using a pin tool into assay plates containing substrates, […] control reactions were included on the same plates and received the same amount of DMSO as the compound treated wells. After adding all reagents, the plates were sealed with adhesive seals and incubated for 90 min at room temperature. An additional 4 uL of assay buffer containing AlphaScreen Protein A acceptor beads […] was then added.

[2] = target: Histone acetyltransferase KAT6A [507-778] (Homo sapiens, UniProt Q92794)
Description: as §1

[3] = target: Histone acetyltransferase KAT5 (Homo sapiens, UniProt Q92993)
Description: as §1

[4] = target: Histone acetyltransferase KAT7 (Homo sapiens, UniProt O95251)
Description: as §1

Question: With `COc1ccccc1-c1cc(NS(=O)(=O)Cc2ccccc2)no1` [US20240277683, Example 2] as the compound, how does the IC50 [1] read?
Answer: The IC50 was 7.77 µM.

Question: For `COc1ccccc1-c1cc(NS(=O)(=O)CCc2ccccc2)no1` [US20240277683, Example 4], which IC50 [1] is on record?
Answer: The IC50 was 23.7 µM.

Question: For `COc1ccccc1-c1cc(NS(=O)(=O)c2c(OC)cccc2OC)no1` [US20240277683, Example 56], which IC50 [1] is on record?
Answer: Its IC50 is 3.14 µM.

Question: For `O=S(=O)(Cc1noc(-c2ccccc2)n1)c1ccccc1F` [US20240277683, Example 68], which IC50 [2] is on record?
Answer: Its IC50 is 92.4 µM.

Question: For `COc1ccc(-c2ccn[nH]2)cc1-c1cc(NS(=O)(=O)c2c(OC)cccc2OC)no1` [US20240277683, Example 72], which IC50 [3] is on record?
Answer: Its IC50 is 0.106 µM.

Question: And the IC50 [4]?
Answer: The IC50 was 0.0388 µM.

Question: `COCc1ccc(OC)c(-c2cc(NS(=O)(=O)c3c(OC)cccc3OC)no2)c1` [US20240277683, Example 73] was tested. Which IC50 [1] did it give?
Answer: The IC50 was 0.117 µM.

Question: `Cc1ccc(S(=O)(=O)Nc2cc(-c3cccc(Cc4ccccc4)c3)no2)cc1C` [US20240277683, Example 77] was tested. Which IC50 [2] did it give?
Answer: The IC50 was 2.2 µM.

Question: How did the IC50 [2] turn out when `COC(=O)c1c(-c2ccc(OC)cc2)noc1NS(=O)(=O)c1ccc(C)c(C)c1` [US20240277683, Example 83] was run?
Answer: Its IC50 is 80.8 µM.

Question: `COc1ccc(-c2ccn(C)n2)cc1-c1cc(NS(=O)(=O)c2c(OC)cccc2OC)no1` [US20240277683, Example 118] was tested. Which IC50 [3] did it give?
Answer: Its IC50 is 41.9 µM.

Question: And the IC50 [4]?
Answer: The IC50 was 3.08 µM.
